How the values were obtained:
cyclooxygenase (PGE2) = assay: resident murine peritoneal macrophage assay, PGE2; conditions: Mus musculus, read-out: IC50 PGE2
5-lipoxygenase (LTC4) = assay: resident murine peritoneal macrophage assay, LTC4; format: cell-based, mouse (Swiss Webster); conditions: Mus musculus, read-out: IC50 LTC4

With `NC1=NN(c2cccc(C(F)(F)F)c2)CC1` [BW 755c, reference compound] the IC50 (cyclooxygenase (PGE2)) was 1040 nM and the IC50 (5-lipoxygenase (LTC4)) was 210 nM.
